Experimental data reported in PMC11145868, “Protein target similarity is positive predictor of in vitro antipathogenic activity: a drug repurposing strategy for Plasmodium falciparum” (Journal of Cheminformatics, 2024).

How the values were obtained:
HepG2 cells = assay: Mammalian cell cytotoxicity assay, HepG2 (CellTiter-Glo, 72 h); settings: read-out: HEP CC50
HEK293T cells = assay: Mammalian cell cytotoxicity assay, HEK293T (CellTiter-Glo, 72 h); settings: read-out: HEK CC50

Oligomycin A
CC50 (HepG2 cells): 2 nM
CC50 (HEK293T cells): 5580 nM
